# Assay: Stability tests of HES-protein conjugates at different pH, 40° C., 20 days
# Assay type: physicochemical
# Settings: protein conjugate 1 mg/ml
# Method: For stability tests at pH 4.0, 5.5, 7.0 and 8.0, the conjugates were diluted into final buffer conditions of 20 mM acetate (pH 4.0 and 5.5) or 10 mM phosphate (pH 7.0 and 8.0), 0.5 mM ETDA, 154 mM NaCl to a final concentration of 1 mg/ml. The conjugates were stored at 40° C. for 20 days and analyzed by RP-HPLC (example for Ubi is shown in FIG. 3), SEC (as described in example C1) or SDS-PAGE (as described in example C1). The results obtained with different target molecules are given in Table 5 and in table 6 and FIGS. 4-6.
substance,measurement,setting,value
L12 X20 HSA,conjugate degradation after 20 days (%) pH 7.0,"10 mM phosphate pH 7.0, 40° C.",5.9%
same,conjugate degradation after 20 days (%) pH 8.0,"10 mM phosphate pH 8.0, 40° C.",10.5%
same,conjugate degradation after 20 days (%) pH 4.0,"20 mM acetate pH 4.0, 40° C.",0.1%
same,conjugate degradation after 20 days (%) pH 5.5,"20 mM acetate pH 5.5, 40° C.",1.3%
